Patent publication US20250032526A1, “COMPOSITION, METHOD FOR PREPARING SAME, AND USE THEREOF” (priority 2022, published 2025)

Test: Compatibility of raw material and auxiliary material (content measurement)
Assay type: physicochemical
Protocol: The mixture was allowed to stand at 60° C. high temperature condition (60° C.), high humidity condition (25° C., 92.5% RH), acceleration condition (40° C.±2° C., 75% RH±5%), and light condition (4500 1×±500 1×) for 10 days and 30 days, and then taken out to detect the content and the change of the related substance.

Content measurement result, 0 day (0 day): 101.8%
Content measurement result, 25° C./92.5% RH, open, 30 day (25° C./92.5% RH, open, 30 day): 99.8%
Content measurement result, 40° C./75% RH, open, 10 day (40° C./75% RH, open, 10 day): 102.2%
Content measurement result, 40° C./75% RH, open, 30 day (40° C./75% RH, open, 30 day): 101.0%
Content measurement result, Illumination, open, 10 day (Illumination, open (4500 lx ± 500 lx), 10 day): 100.9%
SMILES: N#C[C@@]1(c2ccc3c(N)ncnn23)O[C@H](COC(=O)C2CCCCC2)[C@@H](O)[C@H]1O [ATV014]
